# Biological target: Induced myeloid leukemia cell differentiation protein Mcl-1 (Homo sapiens, UniProt Q07820)
# Chains of the proteins cited; added tags and fusions are not shown.
# UniProt Q07820, whole entry: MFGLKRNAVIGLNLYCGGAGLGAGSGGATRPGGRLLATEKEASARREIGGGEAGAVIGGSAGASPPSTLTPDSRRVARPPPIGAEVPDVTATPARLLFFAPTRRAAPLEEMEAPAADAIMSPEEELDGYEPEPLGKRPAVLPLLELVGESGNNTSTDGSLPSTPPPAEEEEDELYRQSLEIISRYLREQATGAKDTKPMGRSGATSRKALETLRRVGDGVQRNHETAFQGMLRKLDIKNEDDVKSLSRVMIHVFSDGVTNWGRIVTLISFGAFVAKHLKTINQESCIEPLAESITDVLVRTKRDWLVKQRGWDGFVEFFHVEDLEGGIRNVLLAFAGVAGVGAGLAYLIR
# Experiment: Inhibition of MCL1 (unknown origin)
smiles,measurement,value
O=C(O)CSc1cc(NS(=O)(=O)c2ccc(Oc3ccccc3)cc2)c2ccccc2c1O,IC50,180 nM

# Reference: ChEMBL document CHEMBL3351223, “Single Diastereomer of a Macrolactam Core Binds Specifically to Myeloid Cell Leukemia 1 (MCL1)” (ACS Med Chem Lett, 2014)
